Measured values: US20040018482A1, “Loading and unloading of permeating protectants for cell, tissue, and organ cryopreservation by vitrification” (priority 1997, published 2004)

Settings: maximum freeze dehydrated solution; Tg estimated as temperature of detectable onset of ice melting endotherm

bovine serum albumin [BSA]
vitrification temperature Tg: −20 °C
